According to patent US20020015937A1, “Methods for inactivating viruses” (priority 2000, published 2002):

System: bacteriophage MS2
Assay: Inactivation of bacteriophage MS2 in human blood plasma by pressure and ethyleneimine (plaque assay on E. coli)

## aziridine (ethyleneimine)
0.025 M ethyleneimine, 30,000 psi for 10 minutes, 25° C., human blood plasma, 10^8 pfu per ml MS2
  reduction in viral titer, combination with pressure versus sum of the reductions of the single treatments: significantly greater reduction in viral titer
Similar experiments with lower concentrations of ethyleneimine, with pressure
  viral inactivation under pressure at lower concentrations: equivalent viral inactivation with lower concentrations of ethyleneimine or with shorter incubation time
